Results published in patent US20050171023A1, “Caspase inhibitors for the treatment of diseases and conditions caused by exposure to radionuclides, biological agents, or chemical agents” (published 2005).

System: ICR Mice (CD-1)
Assay: Protection of mice from death caused by exposure to gamma radiation (Example 1, Experiment B)
Details: for Dead/Total animals: data at day 25

**Q.** What does the source list for Cbz-Val-Asp-CH2F?
**A.** animals protected from death caused by exposure to radiation (850 Rad gamma radiation, single IV administration of 20 mg/kg): about 38%; animals protected from death caused by exposure to radiation (850 Rad gamma radiation, single IV administration of 50 mg/kg): about 38%; Dead/Total animals (850 Rad gamma radiation, single IV injection 10 mg/kg 10 min following irradiation): 8/8; Dead/Total animals (850 Rad gamma radiation, single IV injection 20 mg/kg 10 min following irradiation): 5/8; Dead/Total animals (850 Rad gamma radiation, single IV injection 50 mg/kg 10 min following irradiation): 5/8; effectiveness in protecting mice from death with higher dose of radiation (950 Rad gamma radiation, 10, 20 or 50 mg/kg IV, all animals died): not effective; Dead/Total animals (950 Rad gamma radiation, single IV injection 10 mg/kg 10 min following irradiation): 8/8; Dead/Total animals (950 Rad gamma radiation, single IV injection 20 mg/kg 10 min following irradiation): 8/8; Dead/Total animals (950 Rad gamma radiation, single IV injection 50 mg/kg 10 min following irradiation): 8/8
